Organism: Rattus norvegicus
Assay: Open TG-GATES - Regimen: Daily Repeat
Format: toxicity, organism-based, Sprague-Dawley
Set-up: regimen Daily Repeat, gender Male, age 6 weeks
Settings: in vivo, po, route gavage; for LIVER: tissue Liver; for Hb / Neu: tissue Blood
[1] = 0 mg/kg, 72 h, tissue Plasma, dose level Control, time 3 day
[2] = 0 mg/kg, […], tissue Plasma, dose level Control, time 7 day
[3] = 0 mg/kg, […], tissue Plasma, dose level Control, time 14 day
[4] = 0 mg/kg, […], tissue Plasma, dose level Control, time 28 day
[5] = 20 mg/kg, 72 h, tissue Plasma, dose level Low, time 3 day
[6] = 20 mg/kg, […], tissue Plasma, dose level Low, time 7 day
[7] = 20 mg/kg, […], tissue Plasma, dose level Low, time 14 day
[8] = 20 mg/kg, […], tissue Plasma, dose level Low, time 28 day
[9] = 60 mg/kg, 72 h, tissue Plasma, dose level Middle, time 3 day
[10] = 60 mg/kg, […], tissue Plasma, dose level Middle, time 7 day
[11] = 60 mg/kg, […], tissue Plasma, dose level Middle, time 14 day
[12] = 60 mg/kg, […], tissue Plasma, dose level Middle, time 28 day
[13] = 200 mg/kg, 72 h, tissue Plasma, dose level High, time 3 day
[14] = 200 mg/kg, […], tissue Plasma, dose level High, time 7 day
[15] = 200 mg/kg, […], tissue Plasma, dose level High, time 14 day
[16] = 200 mg/kg, […], tissue Plasma, dose level High, time 28 day
[17] = 0 mg/kg, […], dose level Control, time 7 day
[18] = 0 mg/kg, […], dose level Control, time 14 day
[19] = 0 mg/kg, […], dose level Control, time 28 day
[20] = 10 mg/kg, 72 h, dose level Low, time 3 day
[21] = 10 mg/kg, 72 h, tissue Plasma, dose level Low, time 3 day
[22] = 10 mg/kg, […], dose level Low, time 7 day
[23] = 10 mg/kg, […], dose level Low, time 28 day
[24] = 10 mg/kg, […], tissue Plasma, dose level Low, time 7 day
[25] = 10 mg/kg, […], tissue Plasma, dose level Low, time 14 day
[26] = 10 mg/kg, […], tissue Plasma, dose level Low, time 28 day
[27] = 30 mg/kg, 72 h, dose level Middle, time 3 day
[28] = 30 mg/kg, 72 h, tissue Plasma, dose level Middle, time 3 day
[29] = 30 mg/kg, […], dose level Middle, time 7 day
[30] = 30 mg/kg, […], dose level Middle, time 28 day
[31] = 30 mg/kg, […], tissue Plasma, dose level Middle, time 7 day
[32] = 30 mg/kg, […], tissue Plasma, dose level Middle, time 14 day
[33] = 30 mg/kg, […], tissue Plasma, dose level Middle, time 28 day
[34] = 100 mg/kg, 72 h, dose level High, time 3 day
[35] = 100 mg/kg, 72 h, tissue Plasma, dose level High, time 3 day
[36] = 100 mg/kg, […], dose level High, time 7 day
[37] = 100 mg/kg, […], dose level High, time 14 day
[38] = 100 mg/kg, […], dose level High, time 28 day
[39] = 100 mg/kg, […], tissue Plasma, dose level High, time 7 day
[40] = 100 mg/kg, […], tissue Plasma, dose level High, time 14 day
[41] = 100 mg/kg, […], tissue Plasma, dose level High, time 28 day

## CCCCc1oc2ccccc2c1C(=O)c1cc(I)c(OCCN(CC)CC)c(I)c1 [AMIODARONE]
[1]
  A/G: 1.6
  IP: 6.9 mg/dL
[2]
  A/G: 1.5
  IP: 7.2 mg/dL
[3]
  A/G: 1.5
  IP: 7.6 mg/dL
[4]
  A/G: 1.3
  IP: 6.5 mg/dL
[5]
  A/G: 1.5
  IP: 7.5 mg/dL
[6]
  A/G: 1.4
  IP: 7.5 mg/dL
[7]
  A/G: 1.4
  IP: 7.8 mg/dL
[8]
  A/G: 1.3
  IP: 6.3 mg/dL
[9]
  A/G: 1.6
  IP: 7.2 mg/dL
[10]
  A/G: 1.5
  IP: 8.2 mg/dL
[11]
  A/G: 1.4
  IP: 7.2 mg/dL
[12]
  A/G: 1.3
  IP: 7.2 mg/dL
[13]
  A/G: 1.6
  IP: 7.3 mg/dL
[14]
  A/G: 1.5
  IP: 7.9 mg/dL
[15]
  A/G: 1.5
  IP: 7.2 mg/dL
[16]
  A/G: 1.4
  IP: 6.6 mg/dL

## Cn1c(=O)c2c(ncn2C)n(C)c1=O [CAFFEINE]
0 mg/kg, 72 h, dose level Control, time 3 day
  LIVER: 11 g
[1]
  BUN: 16.6 mg/dL
  Na: 146.2 meq/L
  PL: 131.8 mg/dL
[17]
  Hb: 13.7 g/dL
  LIVER: 12.4 g
[18]
  Hb: 14.1 g/dL
  LIVER: 14.1 g
[19]
  Hb: 15.1 g/dL
  Neu: 14.8%
  LIVER: 16.5 g
[2]
  BUN: 18.2 mg/dL
  Na: 141 meq/L
  PL: 149.2 mg/dL
[3]
  Na: 141.8 meq/L
  PL: 151.4 mg/dL
[4]
  BUN: 19 mg/dL
  Na: 143 meq/L
  PL: 145 mg/dL
[20]
  Hb: 12.9 g/dL
  LIVER: 11 g
[21]
  BUN: 16.8 mg/dL
  Na: 146 meq/L
  PL: 143.6 mg/dL
[22]
  Hb: 13.5 g/dL
  LIVER: 12.1 g
10 mg/kg, […], dose level Low, time 14 day
  Hb: 14 g/dL
[23]
  Hb: 14.9 g/dL
  Neu: 12%
  LIVER: 16.7 g
[24]
  BUN: 16.6 mg/dL
  Na: 142.4 meq/L
  PL: 141 mg/dL
[25]
  BUN: 19.2 mg/dL
  Na: 142.2 meq/L
  PL: 148.4 mg/dL
[26]
  BUN: 17.6 mg/dL
  Na: 143.6 meq/L
  PL: 153 mg/dL
[27]
  Hb: 13.7 g/dL
  Neu: 13.6%
  LIVER: 10 g
[28]
  BUN: 14.2 mg/dL
  Na: 146.2 meq/L
  PL: 140.4 mg/dL
[29]
  Hb: 14.1 g/dL
  LIVER: 11 g
30 mg/kg, […], dose level Middle, time 14 day
  Hb: 14.6 g/dL
[30]
  Hb: 15.1 g/dL
  Neu: 14.6%
  LIVER: 15.5 g
[31]
  BUN: 16.4 mg/dL
  Na: 143.2 meq/L
  PL: 141 mg/dL
[32]
  BUN: 18.4 mg/dL
  Na: 143 meq/L
  PL: 155.4 mg/dL
[33]
  BUN: 16.4 mg/dL
  Na: 143 meq/L
  PL: 151.4 mg/dL
[34]
  Hb: 14.1 g/dL
  LIVER: 9.1 g
[35]
  ALP: 1109 IU/L
  BUN: 12.4 mg/dL
  Na: 145 meq/L
  PL: 131.8 mg/dL
[36]
  Hb: 14.5 g/dL
  LIVER: 9.8 g
[37]
  Hb: 15.1 g/dL
  LIVER: 11.1 g
[38]
  Hb: 15.9 g/dL
  LIVER: 11.3 g
[39]
  Na: 142.6 meq/L
  PL: 149.4 mg/dL
[40]
  BUN: 13.8 mg/dL
  Na: 143.4 meq/L
  PL: 149 mg/dL
[41]
  BUN: 14.2 mg/dL
  Na: 142.2 meq/L
  PL: 146.4 mg/dL
